{"source": "patent US4342828A", "about": "“Method for producing substance capable of stimulating differentiation and proliferation of human granulopoietic stem cells” (Morinaga Milk Industry Co., Ltd., priority 1979, dated 1982)", "tested_on": "monocytes and macrophages", "assay": "CSF production by glycoprotein-treated human monocytes and macrophages (CSF activity of conditioned medium, human bone marrow colony formation)", "assay_type": "cell-based", "conditions": "serum-free McCoy's 5A, 10^5 cells/ml, 3 days", "data": [{"substance": "human serum albumin: human serum albumin (Sigma Co.) added in an amount corresponding to that contained in the fraction media", "values": [{"measurement": "CSF activity", "setting": "added amount 0.5 mg/ml (control: human serum albumin in corresponding amount)", "result": "4 ± 1 number of colonies per 0.1 ml"}, {"measurement": "CSF activity", "setting": "added amount 1.0 mg/ml (control: human serum albumin in corresponding amount)", "result": "6 ± 2 number of colonies per 0.1 ml"}, {"measurement": "CSF activity", "setting": "added amount 5.0 mg/ml (control: human serum albumin in corresponding amount)", "result": "14 ± 2 number of colonies per 0.1 ml"}, {"measurement": "CSF activity", "setting": "added amount 10.0 mg/ml (control: human serum albumin in corresponding amount)", "result": "26 ± 1 number of colonies per 0.1 ml"}]}]}
